Measurements reported in ChEMBL document CHEMBL1132446, “Design, synthesis, and evaluation of Phe-Gly mimetics: heterocyclic building blocks for pseudopeptides” (J Med Chem, 1999).

By UniProt entry, the sequences of proteins in these tests, tags left out.
UniProt P33535, whole entry: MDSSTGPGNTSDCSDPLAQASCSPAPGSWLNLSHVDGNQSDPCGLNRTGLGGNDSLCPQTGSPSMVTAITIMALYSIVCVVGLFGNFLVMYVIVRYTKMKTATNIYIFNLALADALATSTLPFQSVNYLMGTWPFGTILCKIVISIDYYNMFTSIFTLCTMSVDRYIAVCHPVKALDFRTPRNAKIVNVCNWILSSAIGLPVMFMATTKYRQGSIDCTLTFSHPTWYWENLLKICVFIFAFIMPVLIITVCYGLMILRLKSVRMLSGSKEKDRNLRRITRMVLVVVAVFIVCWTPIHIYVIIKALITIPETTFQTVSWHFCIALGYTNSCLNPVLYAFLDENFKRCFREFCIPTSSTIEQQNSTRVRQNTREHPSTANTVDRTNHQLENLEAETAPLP

Biological target: Mu-type opioid receptor (Rattus norvegicus, UniProt P33535)
Assay: The compound was tested for binding affinity towards rat Opioid receptor mu 1 by displacing [3H]DAMGO.
Summary of the method: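 Membranes from whole rat brain minus cerebellum, prepared by sucrose homogenization, differential centrifugation and hypotonic lysis, in 50 mM Tris-HCl pH 7.4. [3H]DAMGO displaced by competitor at 25 °C for 30 min in Tris-HCl/MnCl2 buffer with bacitracin, phosphoramidon and BSA. Unlabeled DAMGO as standard. Filtration through PEI-soaked GF-C filters. Triplicates, three experiments, mean ± SEM.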

C[C@@H](NC(=O)[C@@H](N)Cc1ccc(O)cc1)C(=O)NCC(=O)N(C)[C@@H](Cc1ccccc1)C(=O)NCCO [DAMGO]
IC50: 3.5 nM
